Test results as given in patent US4977153A.

Protein sequences, listed by entry. Tags and fused reporters are not part of them. Residues count along the entry.
UniProt Q8K4Z4, whole entry: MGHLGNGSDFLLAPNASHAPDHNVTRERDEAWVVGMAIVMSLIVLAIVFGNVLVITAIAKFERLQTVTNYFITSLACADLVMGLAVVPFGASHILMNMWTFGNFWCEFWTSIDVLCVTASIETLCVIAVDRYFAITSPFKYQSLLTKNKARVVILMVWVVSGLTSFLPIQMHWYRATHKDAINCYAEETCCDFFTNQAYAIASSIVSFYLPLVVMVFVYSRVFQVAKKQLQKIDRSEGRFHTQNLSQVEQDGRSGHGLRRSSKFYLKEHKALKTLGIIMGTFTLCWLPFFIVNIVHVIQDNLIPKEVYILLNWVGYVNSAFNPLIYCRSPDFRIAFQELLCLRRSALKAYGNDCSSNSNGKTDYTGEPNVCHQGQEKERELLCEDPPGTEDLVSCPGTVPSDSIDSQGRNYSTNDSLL
UniProt P18090, whole entry: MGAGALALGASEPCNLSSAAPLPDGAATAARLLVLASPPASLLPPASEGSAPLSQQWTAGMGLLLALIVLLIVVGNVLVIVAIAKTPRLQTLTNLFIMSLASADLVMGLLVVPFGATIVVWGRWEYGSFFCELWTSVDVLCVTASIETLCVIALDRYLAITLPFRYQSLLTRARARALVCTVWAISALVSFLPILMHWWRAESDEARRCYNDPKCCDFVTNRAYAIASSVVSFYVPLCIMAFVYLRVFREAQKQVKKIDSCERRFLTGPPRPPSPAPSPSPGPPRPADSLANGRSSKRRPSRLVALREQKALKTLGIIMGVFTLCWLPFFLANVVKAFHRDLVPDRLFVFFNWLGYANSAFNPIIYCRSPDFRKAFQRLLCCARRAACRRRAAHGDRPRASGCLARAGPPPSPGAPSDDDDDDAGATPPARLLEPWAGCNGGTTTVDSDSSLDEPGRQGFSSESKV
UniProt H0W3H1, 1-470: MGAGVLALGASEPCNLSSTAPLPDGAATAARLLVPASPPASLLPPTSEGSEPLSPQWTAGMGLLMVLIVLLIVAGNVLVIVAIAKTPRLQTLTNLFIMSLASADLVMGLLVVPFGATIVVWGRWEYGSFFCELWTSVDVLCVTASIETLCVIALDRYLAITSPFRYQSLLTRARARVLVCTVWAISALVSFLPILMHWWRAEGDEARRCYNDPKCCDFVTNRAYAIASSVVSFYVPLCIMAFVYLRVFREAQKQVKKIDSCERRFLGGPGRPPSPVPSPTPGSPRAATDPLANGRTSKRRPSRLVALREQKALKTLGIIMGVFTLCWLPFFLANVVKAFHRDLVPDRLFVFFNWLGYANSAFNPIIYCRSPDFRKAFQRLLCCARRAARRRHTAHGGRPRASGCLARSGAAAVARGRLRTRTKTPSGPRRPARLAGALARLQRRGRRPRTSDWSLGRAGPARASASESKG

Experiments:
[1] = biological target: beta adrenoceptor (guinea pig trachea) (Cavia porcellus, UniProt Q8K4Z4)
[2] = biological target: beta adrenoceptor (heart) (Rattus norvegicus, UniProt P18090); test: inhibition of isoproterenol-induced tachycardia in the pithed rat; type: in vivo
[3] = biological target: beta adrenoceptor (guinea pig atrium) (Cavia porcellus, UniProt H0W3H1)
[4] = test system: resting heart rate in the pithed rat; settings: maximum effect of cumulative doses of drug up to 3 mg/kg
[5] = test system: beta adrenoceptor (guinea pig trachea); settings: selectivity index, guinea pig trachea vs atrium

IC50 [1] [nM] | Pithed Rat Effective Dose (ID50) [2] [µg/kg] | Kb [3] [nM] | SMILES | Maximum Change in Resting Heart Rate in the Pithed Rat [4] | selectivity (cardiac atrial vs tracheal) [5]
40000 | 2 | 1.2 | CCCOCCOc1ccc(OCC(O)CNCCNC(=O)Nc2ccc3[nH]ncc3c2)c(C#N)c1 (stereo not shown) | +119 | –
> 100000 | – | 2.2 | CCCOCCOc1ccc(OCC(O)CNCCNC(=O)Nc2ccc3cn[nH]c3c2)c(C#N)c1 (stereo not shown) | – | 45000
